In ChEMBL document CHEMBL5705888, “Substrate specificity and inhibitors of LRRK2, a protein kinase mutated in Parkinson's disease” (Biochem J, 2009) one finds residual activity data, which are given here for 1 molecule.

Chains of the proteins cited; added tags and fusions are not shown.
Leucine-rich repeat serine/threonine-protein kinase 2 (Homo sapiens), Q5S007, UniProt Q5S007, whole entry G2019S: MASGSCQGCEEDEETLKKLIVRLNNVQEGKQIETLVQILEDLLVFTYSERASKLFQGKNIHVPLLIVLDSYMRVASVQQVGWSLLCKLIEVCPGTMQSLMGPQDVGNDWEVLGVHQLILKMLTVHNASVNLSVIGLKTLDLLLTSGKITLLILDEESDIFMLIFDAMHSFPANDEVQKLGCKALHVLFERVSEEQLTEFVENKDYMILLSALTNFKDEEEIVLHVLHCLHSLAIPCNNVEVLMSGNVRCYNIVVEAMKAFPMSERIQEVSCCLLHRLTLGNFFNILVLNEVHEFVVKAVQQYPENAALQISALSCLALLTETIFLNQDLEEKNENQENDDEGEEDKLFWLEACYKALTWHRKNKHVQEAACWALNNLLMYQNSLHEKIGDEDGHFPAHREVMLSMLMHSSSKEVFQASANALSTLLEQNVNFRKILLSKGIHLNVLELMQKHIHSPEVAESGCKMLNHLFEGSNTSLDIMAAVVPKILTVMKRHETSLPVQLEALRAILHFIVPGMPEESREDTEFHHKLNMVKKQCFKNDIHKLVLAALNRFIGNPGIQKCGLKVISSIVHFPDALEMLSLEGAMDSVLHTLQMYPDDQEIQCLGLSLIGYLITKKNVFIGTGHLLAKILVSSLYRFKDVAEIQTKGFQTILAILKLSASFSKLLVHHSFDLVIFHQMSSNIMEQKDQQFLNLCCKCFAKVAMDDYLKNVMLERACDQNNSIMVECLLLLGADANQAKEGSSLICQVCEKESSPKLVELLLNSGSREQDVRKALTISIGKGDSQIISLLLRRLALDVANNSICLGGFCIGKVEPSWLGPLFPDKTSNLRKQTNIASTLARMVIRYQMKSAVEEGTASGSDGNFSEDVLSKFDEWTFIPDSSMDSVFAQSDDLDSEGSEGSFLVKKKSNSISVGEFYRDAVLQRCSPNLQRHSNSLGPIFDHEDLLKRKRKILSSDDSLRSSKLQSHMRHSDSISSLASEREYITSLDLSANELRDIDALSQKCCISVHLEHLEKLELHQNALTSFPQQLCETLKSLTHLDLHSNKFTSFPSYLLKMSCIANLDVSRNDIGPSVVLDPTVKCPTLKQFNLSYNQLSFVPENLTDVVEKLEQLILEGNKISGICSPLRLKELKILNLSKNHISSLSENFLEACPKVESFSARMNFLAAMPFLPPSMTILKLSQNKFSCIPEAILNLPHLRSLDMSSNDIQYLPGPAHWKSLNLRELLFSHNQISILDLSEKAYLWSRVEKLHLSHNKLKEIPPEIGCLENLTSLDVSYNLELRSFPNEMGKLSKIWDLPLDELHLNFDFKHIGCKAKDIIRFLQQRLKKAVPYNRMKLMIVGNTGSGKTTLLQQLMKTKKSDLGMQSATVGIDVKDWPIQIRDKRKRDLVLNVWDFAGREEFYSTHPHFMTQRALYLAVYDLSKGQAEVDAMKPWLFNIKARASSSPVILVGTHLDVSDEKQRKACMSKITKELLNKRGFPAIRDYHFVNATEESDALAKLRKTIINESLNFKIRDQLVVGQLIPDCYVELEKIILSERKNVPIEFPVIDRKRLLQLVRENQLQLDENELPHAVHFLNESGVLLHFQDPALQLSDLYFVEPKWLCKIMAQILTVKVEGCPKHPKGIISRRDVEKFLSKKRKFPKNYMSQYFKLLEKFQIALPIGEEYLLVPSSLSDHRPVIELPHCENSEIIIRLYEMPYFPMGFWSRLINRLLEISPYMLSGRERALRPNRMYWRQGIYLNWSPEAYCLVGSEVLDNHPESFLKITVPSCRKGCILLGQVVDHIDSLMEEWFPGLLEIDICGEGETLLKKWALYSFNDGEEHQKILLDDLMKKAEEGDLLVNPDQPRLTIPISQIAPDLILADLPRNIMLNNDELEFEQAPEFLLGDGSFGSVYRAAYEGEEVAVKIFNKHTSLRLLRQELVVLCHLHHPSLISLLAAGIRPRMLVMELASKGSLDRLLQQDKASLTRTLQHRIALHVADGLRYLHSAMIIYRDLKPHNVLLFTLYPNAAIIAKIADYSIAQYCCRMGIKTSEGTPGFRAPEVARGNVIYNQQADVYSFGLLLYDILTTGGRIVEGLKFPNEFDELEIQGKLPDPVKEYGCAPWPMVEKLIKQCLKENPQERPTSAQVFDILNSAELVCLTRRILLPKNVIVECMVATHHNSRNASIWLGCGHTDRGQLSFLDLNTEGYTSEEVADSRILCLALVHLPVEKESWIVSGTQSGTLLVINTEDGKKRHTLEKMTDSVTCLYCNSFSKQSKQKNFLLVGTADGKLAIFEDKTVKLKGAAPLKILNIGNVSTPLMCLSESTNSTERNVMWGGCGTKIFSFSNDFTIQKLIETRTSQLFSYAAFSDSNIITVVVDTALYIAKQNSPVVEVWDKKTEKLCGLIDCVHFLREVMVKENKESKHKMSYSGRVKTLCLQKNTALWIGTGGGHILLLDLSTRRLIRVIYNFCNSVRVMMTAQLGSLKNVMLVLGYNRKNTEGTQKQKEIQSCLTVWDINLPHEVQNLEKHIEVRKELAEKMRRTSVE

This experiment deals with Leucine-rich repeat serine/threonine-protein kinase 2 (Homo sapiens), Q5S007 [G2019S]. Description: Inhibition of LRRK2 G2019S mutant (unknown origin) at 1 uM incubated for 30 mins in presence of [gamma-33P]ATP by multidrop micro reagent based assay relative to control; values are per cent of control.

Consider `CCN(CC)CCNC(=O)c1c(C)[nH]c(/C=C2\C(=O)Nc3ccc(F)cc32)c1C`, for which the residual activity stood at 3%.

A word on the residual activity: it is the activity still measured, relative to the control.
